Data from US7045617B2, “Bisbubstrate inhibitors of kinases” (priority 2000, dated 2006).

Protein sequences, listed by entry. Tags and fused reporters are not part of them. Residues count along the entry.
UniProt P06213, 1005-1310 limits assumed: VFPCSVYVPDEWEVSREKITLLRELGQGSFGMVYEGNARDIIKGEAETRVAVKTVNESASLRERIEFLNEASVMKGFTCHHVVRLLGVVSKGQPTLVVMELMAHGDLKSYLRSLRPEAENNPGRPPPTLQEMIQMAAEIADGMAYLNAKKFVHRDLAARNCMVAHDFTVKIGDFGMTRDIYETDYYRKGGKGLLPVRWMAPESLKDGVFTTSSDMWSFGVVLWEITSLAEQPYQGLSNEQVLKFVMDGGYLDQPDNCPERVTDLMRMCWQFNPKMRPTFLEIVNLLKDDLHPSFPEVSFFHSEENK

Target: activated recombinant IRK (insulin receptor kinase) (Homo sapiens, UniProt P06213)
Assay: Steady-state kinetic analysis of IRK inhibition (kinase assay)
Type: biochemical
Procedure: FIG. 2. […] Assays were carried out using activated recombinant IRK as described previously. 6 a, E/V vs. 1/ATP in the presence of varying. Conditions: fixed IRS727 concentration ([…]), 20 mM MgCl2, 0.5 mM DTT, 6 nM IRK, 0.05% bovine serum albumin, Tris-Acetate pH 7, 10 min reaction time. b, E/V vs. 1/IRS727 in the presence of varying. Conditions same as for a except fixed ATP ([…]), 8 nM IRK and 5 min reaction time.
v=Vm(S)/[Km(1+I/Ki)+S]; v=initial velocity, Vm=maximal velocity, S=substrate concentration, Km=Michaelis constant. […] Conditions: Incubation of […] +/−5 mM 2 for 10 min in reaction buffer (20 mM MgCl2, 0.5 mM DTT, 0.05% BSA, 50 mM Tris-Acetate, pH 7) then dilute 1:50 into reaction buffer containing 1 mM ATP and […] peptide6 IRS939 and measure conversion by HPLC at times shown. To determine koff, data were fit to the equation^17: […]
Assays were carried out using activated recombinant IRK as described previously^6. For E/V vs. 1/ATP plot the conditions were: […] IRS727 concentration, 20 mM MgCl2, 0.5 mM DTT, 6 nM IRK, 0.05% bovine serum albumin, 50 mM Tris-Acetate pH 7, 10 min reaction time. For E/V vs. 1/IRS727 in the conditions were the same except fixed ATP ([…]) was employed, 8 nM IRK and 5 min reaction time.
v=Vm(S)/[Km(1+I/Ki)+S]; v=initial velocity, Vm=maximal velocity, S=substrate concentration, Km=Michaelis constant.

For `CSCC[C@H](NC(=O)[C@H](Cc1ccc(NC(=O)CSP(=O)(O)OP(=O)(O)OP(=O)(O)OC[C@H]2O[C@@H](n3cnc4c(N)ncnc43)[C@H](O)[C@@H]2O)cc1)NC(=O)[C@H](CC(=O)O)NC(=O)CNC(=O)[C@@H](NC(=O)[C@H](C)NC(=O)[C@@H]1CCCN1C(=O)[C@H](CC(C)C)NC(=O)[C@H](CCCCN)NC(=O)[C@H](CCCCN)NC(=O)[C@H](CCCCN)NC(C)=O)[C@@H](C)O)C(=O)N[C@@H](CC(N)=O)C(=O)N[C@@H](CCSC)C(=O)N[C@@H](CO)C(=O)N1CCC[C@H]1C(=O)N[C@H](C(=O)NCC(=O)N[C@@H](CC(=O)O)C(=O)O)C(C)C` [Compound 2], the IC50 was ~10 µM.
